Experimental data: patent US5721356A, “Orally active adenosine kinase inhibitors” (Gensia, Inc., priority 1995, dated 1998)

The chains behind the UniProt entries cited, without tags or fusion partners. Residues count along the entry.
UniProt A0A5G2R0F5, 1-362: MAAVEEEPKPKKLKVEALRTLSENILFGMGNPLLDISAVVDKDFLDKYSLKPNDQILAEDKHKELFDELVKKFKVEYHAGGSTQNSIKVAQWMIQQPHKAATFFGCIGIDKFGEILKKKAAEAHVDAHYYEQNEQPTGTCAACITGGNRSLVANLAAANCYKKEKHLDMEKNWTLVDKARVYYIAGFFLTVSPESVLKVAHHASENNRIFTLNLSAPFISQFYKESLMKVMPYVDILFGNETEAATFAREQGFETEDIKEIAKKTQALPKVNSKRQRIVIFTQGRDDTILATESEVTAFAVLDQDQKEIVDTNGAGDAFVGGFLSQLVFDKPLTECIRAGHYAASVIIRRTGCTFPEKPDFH

Target: T1, partially purified pig heart adenosine kinase (Sus scrofa, UniProt A0A5G2R0F5)
T1 construct: partially purified pig heart adenosine kinase; from tissue; host or cells: pig heart
Experiment: Adenosine kinase (AK) inhibition
Type: biochemical
Protocol: Adenosine kinase activity was measured essentially as described by Yamada et al. Biochim. Biophys. Acta 660, 36-43 […] with a few minor modifications. Assay mixtures contained 50 mM TRIS-maleate buffer, pH 7.0, 0.1% BSA, 1 mM ATP 1 mM MgCl2, 0.5 μM [U-^14 C]adenosine (400-600 mCi/mmol) and varying duplicate concentrations of inhibitor. The reactions were initiated by addition of approximately 0.1 μU partially purified pig heart adenosine kinase, where one unit is defined as that amount of enzyme required to phosphorylate 1 μmol adenosine per minute. The reactions were incubated for 20 minutes at 37° C. The assay was quenched upon spotting 30 μL aliquots onto 2 cm^2 pieces of Whatman DE81 anion exchange paper. The paper squares were washed for 3 minutes in 6 L distilled/deionized water to remove the unreacted adenosine. […] The amount of ^14 C-AMP was quantified by scintillation counting.

IC50: 2 nM
SMILES: C[C@H]1O[C@@H](n2cc(-c3ccccc3)c3c(Nc4ccccc4)ncnc32)[C@H](O)[C@@H]1O [#4, 4-phenylamino-5-phenyl-7-(5-deoxy-1-β-D-ribofuranosyl)pyrrolo[2,3-d]pyrimidine]
